Source: patent US5180831A (priority 1990, dated 1993)

Sequences of proteins named here, by UniProt entry; tags and fusion partners are left off. Residues count along the entry.
UniProt P22303, 32-617 isoform 2 limits assumed: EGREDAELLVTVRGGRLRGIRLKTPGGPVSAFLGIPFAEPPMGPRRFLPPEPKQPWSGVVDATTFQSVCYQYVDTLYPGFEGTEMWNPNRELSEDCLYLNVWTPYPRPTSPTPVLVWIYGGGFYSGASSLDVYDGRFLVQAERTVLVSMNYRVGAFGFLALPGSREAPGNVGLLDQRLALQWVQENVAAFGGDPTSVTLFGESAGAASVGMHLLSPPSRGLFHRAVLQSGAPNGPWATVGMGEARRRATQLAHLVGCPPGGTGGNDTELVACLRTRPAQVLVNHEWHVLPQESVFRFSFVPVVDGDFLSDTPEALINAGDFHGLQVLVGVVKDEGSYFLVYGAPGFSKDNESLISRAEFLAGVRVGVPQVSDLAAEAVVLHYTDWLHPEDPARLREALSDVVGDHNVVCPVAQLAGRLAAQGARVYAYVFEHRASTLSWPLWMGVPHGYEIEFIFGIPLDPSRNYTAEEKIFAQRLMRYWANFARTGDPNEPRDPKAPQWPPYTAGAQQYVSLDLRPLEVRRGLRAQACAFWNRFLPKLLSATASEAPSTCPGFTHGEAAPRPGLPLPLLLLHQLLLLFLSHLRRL

What was measured:
human erythrocyte AChE = human erythrocyte AChE (Homo sapiens, UniProt P22303); assay: Irreversible inhibition of human erythrocyte AChE; type: biochemical; settings: human AChE in vitro
AChE = assay: Irreversible inactivation of AChE, enzyme source not specified

Row | SMILES | anti AChE activity compared with pyridostigmine or physostigmine (human erythrocyte AChE) | half-life for inactivation (AChE)
1 | COc1ccc(CON=Cc2c(OC(=O)N(C)C)ccc[n+]2C)cc1 | greater anti AChE activity | about 9 sec
2 | CN(C)C(=O)Oc1ccc[n+](C)c1C=NOCc1ccccc1 | greater anti AChE activity | 
